Experimental findings from PMC10760395, “The functionality of a therapeutic antibody candidate restored by a single mutation from proline to threonine in the variable region” (Human Vaccines & Immunotherapeutics, 2023) are described below.

This experiment addresses T1, endothelin B receptor (ETB) (Homo sapiens (species  in …, UniProt P24530)).
T1 construct: also called CHO-ETB; source: CHO cell line established with ETB (CHO-ETB), on cells
Description: flow cytometry on cells; CHO-ETB cells (CHO-WT as control) incubated overnight at 4°C with antibodies from 0.01 nM to 100 nM; detected with Alexa-Fluor 488 goat anti-mouse IgG or F(ab')2 goat anti-human IgG Fc; normalised MFI fitted with one site specific binding; apparent Kd. To be noted: one partner purified. In general terms: Flow cytometry measures light scatter and fluorescence of single cells or particles in a stream.

B1: xiRB49-P125T (antibody, V domains shown)
VH: QVQLQQPGAALVKPGASVKLSCKASGYTFISYWMLWVKQRPGRGLEWIGRIDPDSGGTKYNEKFKSKATLTVDKSSSTAYMQLSSLTSEDSAVYYCAREGDYAWFAYWGQGTLVTVSA
VL: DVLMTQTPLSLPVSLGDQASISCRSSQSIVHSNGNTYLEWYLQKPGQSPKLLIYKVSNRFSGVPDRFSGSGSGTDFTLKISRVEAEDLGVYYCFQGSHVPWTFGGGTKLEIK
B1: the Kd stood at 0.8 nM.

B2: Fab-xiRB49-P125T (Fab, V domains shown)
VH: B1 VH
VL: B1 VL
For B2, the Kd was determined as 13.6 nM.
